The values below come from patent US5679805A, “Photochromic spironaphthopyran compounds” (Vision-Ease Lens, Inc., priority 1995, dated 1997).

A short description of this series: maximum absorption wavelength of chloroform-dissolved photochromic compounds irradiated with ultraviolet light. The series is classed as physicochemical. The note with it: maximum wavelength of 350 nanometers.

`COc1ccc2c3c(ccc2c1)OC(c1ccccc1)(c1ccccc1)C=C3` [Comparative Example 1, 3,3-diphenyl-8-methoxy-3H-naphtho[2,1-b]pyran, reference compound]: the “maximum absorption wavelength λmax” value was found to be 472.
